# Tests used:
# Format in all cases: in vivo
# [1] = test system: WT and TIMP-3−/− mice post-MI; assay: Assessment of cardiac rupture post-MI with cetuximab treatment
# Experimental: (§1) MI was induced by occlusion of the left anterior descending coronary artery as we have previously described. Experiments were conducted at 5 or 30 days post surgery to mimic early and later stages of heart failure, respectively. Survival was monitored, and incidence of cardiac rupture and the left ventricle to body weight ratio were recorded. Mice with infarct sizes between 30-45% were used in all studies.
# Deceased mice were examined within 12 hours. The chest was opened to examine bleeding around the infarct region. Hearts were then removed and the left ventricle (LV) chamber was cannulated with a 20 G blunt end IV catheter via the aorta and perfused with 200 μL saline to determine if there was leakage from the infarct region. Histological examination was conducted to confirm the region of cardiac rupture. Briefly, WT and TIMP-3^−/− hearts were isolated after death post-MI and fixed in 4% paraformaldehyde and embedded in paraffin. Samples were then sectioned (5 μm), stained with hematoxylin/eosin and visualized using a Zeiss microscope (Observer D1) as in our previous study.
# Following MI, WT and TIMP-3^−/− mice were treated with cetuximab (Erbitux®, 10 mg/kg) immediately by an IV injection, which was followed by IP injections at day 3 and 5 post-MI, respectively. Survival was monitored for 30 days after MI. Hemodynamic measurements were made at 5 and 30 days post-MI. […]
# [2] = test system: WT and TIMP-3−/− mice post-MI; assay: Hemodynamic measurements (Millar pressure transducer catheter) post-MI with cetuximab treatment; settings: for Heart Rate / LV +dP/dt / LV −dP/dt / LVEDP / LVSP / MAP: MI + Cetux, mean ± SEM
# Experimental: as §1
# Cardiac function was measured at 5 and 30 days post-MI using a Millar pressure transducer catheter (Model SPR-839, Size 1.4F) as previously described. Measurements included arterial pressures, heart rate, LV systolic and end-diastolic pressures, as well as the maximal rate of LV pressure development (+dP/dt) and maximal rate of pressure relaxation (−dP/dt). Animals were sacrificed after hemodynamic measurements and cardiac hypertrophy was assessed by determination of the heart weight (mg) to the body weight (g) ratio.
# Following MI, WT and TIMP-3^−/− mice were treated with cetuximab (Erbitux®, 10 mg/kg) immediately by an IV injection, which was followed by IP injections at day 3 and 5 post-MI, respectively. Survival was monitored for 30 days after MI. Hemodynamic measurements were made at 5 and 30 days post-MI. Post-mortem examinations were performed in all mice that died after MI to identify cardiac ruptures.
# [3] = test system: WT and TIMP-3−/− mice post-MI; assay: Survival after myocardial infarction (MI) with cetuximab treatment
# Experimental: Wild-type (WT) mice of the genetic background C57BL/6 were purchased from Charles River Laboratories (Wilmington, Mass.). TIMP3^−/− mice were generated as described previously and back-crossed more than 7 generations into the C57BL/6 background. Animals were provided with food and water ad libitum and maintained in a temperature and humidity controlled facility with 12-hour light and dark cycles. A breeding program was carried out to generate adults for this study. Animal studies were approved by the University of Western Ontario Institutional Animal Care and Use Committee, and the investigation conformed with the Guide for the Care and Use of Laboratory Animals, published by National Institutes of Health (NIH Publication No. 85-23, revised 1996).
# as §1
# Following MI, WT and TIMP-3^−/− mice were treated with cetuximab (Erbitux®, 10 mg/kg) immediately by an IV injection, which was followed by IP injections at day 3 and 5 post-MI, respectively. Survival was monitored for 30 days after MI. […]
# [4] = WT mice, cetuximab 10 mg/kg, P=n.s.
# [5] = TIMP-3−/− mice, 30 days post-MI
# [6] = TIMP-3−/− mice, 30 days post-MI, P<0.05 vs MI
substance,measurement,setting,value
cetuximab,incidence of cardiac rupture,"[1]; TIMP-3−/− mice, cetuximab 10 mg/kg immediately and at day 3 and 5 post-MI, untreated 34%, P<0.05",12%
same,effect on cardiac rupture,[1]; [4],did not have any significant effect
same,Heart Rate,"[2]; TIMP-3−/− mice, 5 days post-MI",412 ± 14 bpm
same,LV +dP/dt,"[2]; TIMP-3−/− mice, 5 days post-MI",4981 ± 885 mmHg s^−1
same,LV −dP/dt,"[2]; TIMP-3−/− mice, 5 days post-MI",4206 ± 568 mmHg s^−1
same,LVEDP,"[2]; TIMP-3−/− mice, 5 days post-MI",7.1 ± 0.9 mmHg
same,LVSP,"[2]; TIMP-3−/− mice, 5 days post-MI",72.5 ± 3.9 mmHg
same,MAP,"[2]; TIMP-3−/− mice, 5 days post-MI",67.0 ± 4.5 mmHg
same,Heart Rate,[2]; [5],371 ± 17 bpm
same,LV +dP/dt,[2]; [5],7312 ± 463 mmHg s^−1
same,LV −dP/dt,[2]; [5],6996 ± 931 mmHg s^−1
same,LVEDP,[2]; [5],9.0 ± 2.8 mmHg
same,LVSP,[2]; [5],117.7 ± 11.8 mmHg
same,MAP,[2]; [5],79.9 ± 4.2 mmHg
same,LV+dP/dt change after cetuximab treatment,[2]; [6],significantly increased
same,LVSP change after cetuximab treatment,[2]; [6],significantly increased
same,cardiac function,"[2]; TIMP-3−/− mice, day 5 post-MI, cetuximab vs MI alone",not significantly different
same,Heart Rate,"[2]; WT mice, 5 days post-MI",429 ± 35 bpm
same,LV +dP/dt,"[2]; WT mice, 5 days post-MI",4428 ± 676 mmHg s^−1
same,LV −dP/dt,"[2]; WT mice, 5 days post-MI",3974 ± 455 mmHg s^−1
same,LVEDP,"[2]; WT mice, 5 days post-MI",9.8 ± 2.5 mmHg
same,LVSP,"[2]; WT mice, 5 days post-MI",76.5 ± 4.9 mmHg
same,MAP,"[2]; WT mice, 5 days post-MI",62.1 ± 4.5 mmHg
same,Heart Rate,"[2]; WT mice, 30 days post-MI",381 ± 17 bpm
same,LV +dP/dt,"[2]; WT mice, 30 days post-MI",5523 ± 376 mmHg s^−1
same,LV −dP/dt,"[2]; WT mice, 30 days post-MI",5767 ± 391 mmHg s^−1
same,LVEDP,"[2]; WT mice, 30 days post-MI",11.5 ± 2.6 mmHg
same,LVSP,"[2]; WT mice, 30 days post-MI",94.3 ± 7.0 mmHg
same,MAP,"[2]; WT mice, 30 days post-MI",74.9 ± 3.7 mmHg
same,effect on cardiac function,[2]; [4],did not have any significant effect
same,30-day survival post-MI,"[3]; TIMP-3−/− mice, cetuximab 10 mg/kg IV immediately, IP at day 3 and 5 post-MI, untreated 22.7%, P<0.01",62.5%
same,effect on survival,[3]; [4],did not have any significant effect
